Reference: patent publication US10918657B2 (priority 2013, dated 2021)

Key:
Type in all cases: in vivo, Petromyzon marinus
giant RS axons = assay: NF-180 immunolabeled axon count (axon regeneration) after spinal cord transection; conditions: morpholino 10 μg; 11 weeks post-injury; ventral half of spinal cord
[1] = tested on: giant reticulospinal (RS) neurons; assay: Nissl staining of giant RS neurons (neuronal survival) after spinal cord transection; conditions: morpholino 10 μg; 11 weeks post-transection; mean±S.E.M.
[2] = tested on: giant reticulospinal (RS) neurons; assay: Synuclein immunofluorescence in giant RS neurons after spinal cord transection; conditions: morpholino 10 μg at time and site of transection; 11 weeks post-transection; mean±S.E.M.

5′-CGCGTCCATTCCTCTTTCTTTGTCT-3′
increase in number of NF-180 labeled axons proximal, within, and distal to the lesion (giant RS axons): 2 fold | survival of the giant RS neurons at the population level (Nissl (+)) [1]: 72.1±3.2 | synuclein immunofluorescence intensity in good survivors [2]: 17.7±1.4 AU | synuclein immunofluorescence intensity in poor survivors [2]: 26.5±2.5 AU
